Target: T1, interleukin-1 receptor alpha (IL-1Rα)
T1 construct: Bought reagent, coated on AR2G biosensors at 1 µg/ml; also called IL-1Rα (R&D systems)
Assay: BLI (Octet RED384), IL-1Rα coated on AR2G biosensor, GI-210B1 at 15.6 to 1,000 nM
Protocol: The binding capacity of GI-210B1, obtained by the method of Preparation Example 1, to interleukin-1 receptor alpha (IL-1Rα) was measured. Here, the binding capacity to IL-1Rα was checked using Octet RED384 (ForteBio). An amine reactive 2nd generation (AR2G) biosensor was immersed in a 1× kinetic buffer for 10 minutes, and then used. IL-1Rα (R&D systems) was prepared at 1 μg/ml, the biosensor was coated with the IL-1Rα, the GI-210B1 was serially diluted to 15.6 to 1,000 nM, and then the binding capacity was measured at each concentration.

- koff: 0.0093 s⁻¹
- kon: 22000 M⁻¹ s⁻¹
B1: GI-210B1 (GLP-1-IgG4 Fc-IL-1Ra) fusion protein dimer (Fc fusion)
chain: HGEGTFTSDVSSYLEEQAAKEFIAWLVKGGGGGGGSGGGGSGGGGSGGAESKYGPPCPPCPAPEAAGGPSVFLFPPKPKDQLMISRTPEVTCVVVDVSQEDPEVQFNWYVDGVEVHNAKTKPREEQFNSTYRVVSVLTVLHQDWLNGKEYKCKVSNKGLPSSIEKTISKAKGQPREPQVYTLPPSQEEMTKNQVSLTCLVKGFYPSDIAVEWESNGQPENNYKTTPPVLDSDGSFFLYSRLTVDKSRWQEGNVFSCSVLHEALHNHYTQKSLSLSLGGGGGSGGGGSGGGGSGGRPSGRKSSKMQAFRIWDVNQKTFYLRNNQLVAGYLQGPNVNLEEKIDVVPIEPHALFLGIHGGKMCLSCVKSGDETRLQLEAVNITDLSENRKQDKRFAFIRSDSGPTTSFESAACPGWFLCTAMEADQPVSLTNMPDEGVMVTKFYFQEDE
notes: also called GI-210B1 fusion protein

Reference: US20230357346A1 (GI INNOVATION, published 2023)
